Here are results for 1 compound from ChEMBL document CHEMBL3297690, “Discovery and development of Janus kinase (JAK) inhibitors for inflammatory diseases” (J Med Chem, 2014).

Amino acid sequences for entries named in this document (tags omitted). A change or cut given only in a name is not applied to a line headed by its entry.
UniProt O60674: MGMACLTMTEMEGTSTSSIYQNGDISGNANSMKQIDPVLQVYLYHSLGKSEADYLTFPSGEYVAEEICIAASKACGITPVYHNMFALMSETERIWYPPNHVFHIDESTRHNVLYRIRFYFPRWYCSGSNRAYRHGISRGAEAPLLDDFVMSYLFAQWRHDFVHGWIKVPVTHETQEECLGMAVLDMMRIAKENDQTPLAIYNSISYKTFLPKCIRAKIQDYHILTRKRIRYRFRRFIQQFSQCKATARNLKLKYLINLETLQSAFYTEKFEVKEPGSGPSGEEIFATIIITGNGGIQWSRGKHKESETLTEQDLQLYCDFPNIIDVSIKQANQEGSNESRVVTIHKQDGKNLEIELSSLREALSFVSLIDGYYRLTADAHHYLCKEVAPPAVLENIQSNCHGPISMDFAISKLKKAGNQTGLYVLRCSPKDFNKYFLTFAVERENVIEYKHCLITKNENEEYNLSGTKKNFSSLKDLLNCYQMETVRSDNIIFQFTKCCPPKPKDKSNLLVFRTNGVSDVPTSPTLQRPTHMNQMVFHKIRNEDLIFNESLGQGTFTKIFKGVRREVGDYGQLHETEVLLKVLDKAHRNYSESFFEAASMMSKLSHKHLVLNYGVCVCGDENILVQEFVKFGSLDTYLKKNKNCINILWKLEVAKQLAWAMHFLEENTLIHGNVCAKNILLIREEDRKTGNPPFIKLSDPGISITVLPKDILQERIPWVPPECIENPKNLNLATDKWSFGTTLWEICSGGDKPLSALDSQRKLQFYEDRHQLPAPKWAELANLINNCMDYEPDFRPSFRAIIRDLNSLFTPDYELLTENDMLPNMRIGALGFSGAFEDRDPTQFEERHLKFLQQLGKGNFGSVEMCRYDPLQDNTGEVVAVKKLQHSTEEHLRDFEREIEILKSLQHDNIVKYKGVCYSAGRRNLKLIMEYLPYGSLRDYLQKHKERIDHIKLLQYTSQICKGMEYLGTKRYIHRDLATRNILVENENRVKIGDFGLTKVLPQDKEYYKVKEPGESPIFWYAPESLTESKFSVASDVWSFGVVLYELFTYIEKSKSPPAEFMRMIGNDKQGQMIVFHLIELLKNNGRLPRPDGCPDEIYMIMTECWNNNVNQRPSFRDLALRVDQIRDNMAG
UniProt P23458: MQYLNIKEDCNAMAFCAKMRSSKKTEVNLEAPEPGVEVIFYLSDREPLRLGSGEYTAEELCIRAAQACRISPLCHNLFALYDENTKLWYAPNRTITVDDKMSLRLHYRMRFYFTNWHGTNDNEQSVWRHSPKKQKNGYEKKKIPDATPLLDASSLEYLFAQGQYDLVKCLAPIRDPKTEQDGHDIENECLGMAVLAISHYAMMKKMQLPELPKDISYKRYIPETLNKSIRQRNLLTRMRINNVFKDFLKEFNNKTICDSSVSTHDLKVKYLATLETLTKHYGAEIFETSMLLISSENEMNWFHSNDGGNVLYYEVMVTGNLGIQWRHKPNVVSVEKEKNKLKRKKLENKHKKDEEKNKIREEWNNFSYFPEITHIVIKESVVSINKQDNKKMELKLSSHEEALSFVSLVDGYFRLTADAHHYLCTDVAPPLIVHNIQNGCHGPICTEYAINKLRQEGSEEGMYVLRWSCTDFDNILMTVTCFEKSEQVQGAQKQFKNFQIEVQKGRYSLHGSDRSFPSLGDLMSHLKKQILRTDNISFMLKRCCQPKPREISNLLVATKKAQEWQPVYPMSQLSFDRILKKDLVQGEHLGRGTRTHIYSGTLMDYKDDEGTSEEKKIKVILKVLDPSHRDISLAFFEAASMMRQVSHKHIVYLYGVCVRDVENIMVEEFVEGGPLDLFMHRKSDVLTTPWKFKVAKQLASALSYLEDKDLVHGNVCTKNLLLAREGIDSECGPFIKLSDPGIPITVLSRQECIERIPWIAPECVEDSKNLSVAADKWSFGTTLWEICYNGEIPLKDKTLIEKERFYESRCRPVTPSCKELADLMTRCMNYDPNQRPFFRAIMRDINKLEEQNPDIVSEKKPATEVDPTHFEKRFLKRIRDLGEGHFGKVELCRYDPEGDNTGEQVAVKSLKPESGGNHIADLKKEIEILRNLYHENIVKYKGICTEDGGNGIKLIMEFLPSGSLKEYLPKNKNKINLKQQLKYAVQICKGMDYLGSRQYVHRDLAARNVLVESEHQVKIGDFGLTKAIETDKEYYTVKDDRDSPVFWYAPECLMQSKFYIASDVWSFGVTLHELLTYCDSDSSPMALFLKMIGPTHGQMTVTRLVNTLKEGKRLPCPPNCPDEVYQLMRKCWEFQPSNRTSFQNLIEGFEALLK
UniProt P29597: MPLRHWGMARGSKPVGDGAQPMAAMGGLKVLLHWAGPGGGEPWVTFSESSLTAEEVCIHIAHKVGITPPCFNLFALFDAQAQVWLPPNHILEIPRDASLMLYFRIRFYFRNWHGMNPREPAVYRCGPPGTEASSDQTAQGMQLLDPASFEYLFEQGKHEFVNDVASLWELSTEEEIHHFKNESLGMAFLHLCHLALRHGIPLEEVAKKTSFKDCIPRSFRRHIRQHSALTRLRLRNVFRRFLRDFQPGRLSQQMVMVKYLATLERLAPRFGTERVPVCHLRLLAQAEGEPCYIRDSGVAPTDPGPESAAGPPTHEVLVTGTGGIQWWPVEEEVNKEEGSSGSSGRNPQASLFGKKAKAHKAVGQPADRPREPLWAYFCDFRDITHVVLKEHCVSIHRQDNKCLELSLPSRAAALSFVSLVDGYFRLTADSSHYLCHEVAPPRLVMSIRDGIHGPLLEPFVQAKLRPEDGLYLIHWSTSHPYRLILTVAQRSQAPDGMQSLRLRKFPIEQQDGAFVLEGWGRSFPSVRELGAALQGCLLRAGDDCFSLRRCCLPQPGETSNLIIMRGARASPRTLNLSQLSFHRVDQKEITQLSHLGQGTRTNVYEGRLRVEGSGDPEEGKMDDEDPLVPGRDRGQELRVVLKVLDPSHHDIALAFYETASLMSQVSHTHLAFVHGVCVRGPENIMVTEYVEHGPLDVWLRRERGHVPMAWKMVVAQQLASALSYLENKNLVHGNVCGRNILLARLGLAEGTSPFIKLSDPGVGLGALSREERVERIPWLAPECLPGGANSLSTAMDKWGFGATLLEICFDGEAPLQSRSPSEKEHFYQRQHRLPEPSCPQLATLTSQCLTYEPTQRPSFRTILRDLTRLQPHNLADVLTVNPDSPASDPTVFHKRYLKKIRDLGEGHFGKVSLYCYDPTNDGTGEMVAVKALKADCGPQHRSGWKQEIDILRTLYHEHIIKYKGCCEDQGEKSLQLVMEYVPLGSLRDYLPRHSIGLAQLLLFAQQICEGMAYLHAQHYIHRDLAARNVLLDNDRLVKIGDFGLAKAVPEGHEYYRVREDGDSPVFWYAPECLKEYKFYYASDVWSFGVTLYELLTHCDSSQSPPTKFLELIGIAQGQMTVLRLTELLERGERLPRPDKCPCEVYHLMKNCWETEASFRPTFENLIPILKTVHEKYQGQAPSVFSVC

For one experiment, the target named is JAK1/JAK2/TYK2 (Homo sapiens, UniProt O60674+P23458+P29597). It is filed as protein-complex assay, Blood.
The target of experiment [1] is T1, JAK2/TYK2 (Homo sapiens, UniProt O60674+P29597). Type of experiment: protein-complex assay, Blood.
In a further experiment the target is JAK1/TYK2 (Homo sapiens, UniProt P23458+P29597). Type of experiment: protein-complex assay, Blood.
In experiment [2] the target is T1, JAK2/TYK2. It is filed as protein-complex assay, Blood. The source holds these as a separate data set.
For experiment [3], the target named is Non-receptor tyrosine-protein kinase TYK2 (Homo sapiens, UniProt P29597).

Broadly, the IC50 is the concentration that gives 50% inhibition. Low values mean greater potency in that assay, high ones weaker potency in that assay. Regarding `CC[C@@](C)(Nc1ccnc(-c2c[nH]c3ncccc23)n1)C(=O)NCC(F)(F)F` [DECERNOTINIB], the IC50 on JAK1/JAK2/TYK2 is 1.87 µM; on JAK2/TYK2 [1], 11.2 µM; on JAK1/TYK2 it was 1.29 µM; at JAK2/TYK2 [2], 16.4 µM; in experiment [3], above 10 µM.
